Values quoted from earlier work, collected in patent publication US20180071303A1, “SYK INHIBITORS” (Gilead Sciences, Inc., priority 2016, published 2018).

Target: SYK (Homo sapiens, UniProt P43405)
Settings: SYK versus Jak2, cKit, Flt3, Ret and KDR; FIG. 5 adapted from Currie et al.; cited from earlier work

Structure (SMILES): c1cn2cc(-c3ccc4cn[nH]c4c3)nc(Nc3ccc(N4CCOCC4)cc3)c2n1 [entospletinib]
- activity against SYK compared to other protein kinases (selectivity): at least ten fold more active
